Test results published in patent US12507703B2, “Methods, devices and compositions for preserving human milk” (The Trustees of Princeton University, priority 2023, dated 2025).

System: lipase
Test: Lipase/lipolysis assay (EnzChek Lipase Substrate, quenched BODIPY-fatty acid conjugate) on stored human milk
[1] = compound added to fresh human milk, stored 1 week at −20° C., thawed at room temperature, RFU <400 considered a hit
[2] = Food Additive Library compound added to fresh human milk, stored 1 week at −20° C., thawed at room temperature, RFU of <400 considered a hit
[3] = Biolog PM1 compound added to fresh human milk, stored 1 week at −20° C., RFU <400 = hit
[4] = Biolog PM5 compound added to fresh human milk, stored 1 week at −20° C., RFU <400 = hit
[5] = Biolog PM2a compound added to fresh human milk, stored 1 week at −20° C., RFU <400 = hit
[6] = Food-Sourced Compound Library compound added to fresh human milk, stored 1 week at −20° C., thawed at room temperature, RFU <400 considered a hit

| Compound | Lipase (RFU) [1] | Lipase (RFU) [2] | also measured |
| --- | --- | --- | --- |
| CC(=O)O.Cc1cc2c(C(C)C)c(O)c(O)c(C=O)c2c(O)c1-c1c(C)cc2c(C(C)C)c(O)c(O)c(C=O)c2c1O [(R)-(−)-Gossypol acetic acid] | 580.7646 RFU | – | – |
| C/C=C/c1ccc(OC)cc1 [Trans-Anethole] | 979.1165 RFU | 967.4121 RFU | – |
| O=C1O[C@H]([C@@H](O)CO)C(O)=C1O [L-Ascorbic acid (sodium salt)] | 1100.764 RFU | 1247.113 RFU | – |
| O=c1cc(-c2ccc(O)cc2)oc2cc(O[C@@H]3O[C@H](CO)[C@@H](O)[C@H](O)[C@H]3O)cc(O)c12 [Apigenin 7-glucoside] | 1209.986 RFU | – | – |
| O=C(OC[C@H]1O[C@@H](OC(=O)c2cc(O)c(O)c(OC(=O)c3cc(O)c(O)c(O)c3)c2)[C@H](OC(=O)c2cc(O)c(O)c(OC(=O)c3cc(O)c(O)c(O)c3)c2)[C@@H](OC(=O)c2cc(O)c(O)c(OC(=O)c3cc(O)c(O)c(O)c3)c2)[C@@H]1OC(=O)c1cc(O)c(O)c(OC(=O)c2cc(O)c(O)c(O)c2)c1)c1cc(O)c(O)c(OC(=O)c2cc(O)c(O)c(O)c2)c1 [Tannic acid] | 1076.036 RFU | 1033.049 RFU | – |
| CC(O)(CC(=O)O)CC(=O)O [Meglutol] | 965.3573 RFU | – | – |
| Gelatin | – | – | Lipase (RFU) [5]: 658.8161 RFU |
| CC(=O)c1cc(C)ccc1O [2′-Hydroxy-5′-methylacetophenone] | – | 953.8722 RFU | – |
| Cc1cccc(CC(=O)O)c1 [m-Tolylacetic acid] | – | – | Lipase (RFU) [6]: 989.3046 RFU |
| COC(=O)[C@H](Cc1ccccc1)NC(=O)[C@@H](N)CC(=O)O [Aspartame] (H-Asp-Phe-OMe) | – | 1041.59 RFU | – |
| Oc1cccc(O)c1O [Pyrogallol] | 896.8381 RFU | – | – |
| CC(=O)N[C@@H](CCC(=O)O)C(=O)O [N-Acetyl-L-Glutamic Acid] | – | – | Lipase (RFU) [5]: 1040.727 RFU |
| CCOC(=O)CC(O)(CC(=O)OCC)C(=O)OCC [Triethyl citrate] | – | 1099.976 RFU | – |
| CC(=O)NCC(=O)O [N-Acetylglycine] | – | – | Lipase (RFU) [6]: 915.7026 RFU |
| O=C(O)Cc1ccccc1O [2-Hydroxyphenylacetic acid] | 818.0796 RFU | – | – |
| CC(C)(CO)[C@@H](O)C(=O)NCCCO [D-Panthenol] | – | 659.466 RFU | – |
| CC(C)=CCC[C@@H](C)CCO [(R)-Citronellol] | 691.7924 RFU | – | – |
| O=NN(CCCl)C(=O)NCCCl [Carmustine] | 1282.739 RFU | – | – |
| N[C@@H](Cc1c[nH]c2ccc(O)cc12)C(=O)O [L-5-Hydroxytryptophan] | – | – | Lipase (RFU) [6]: 950.5763 RFU |
| O=C(O)C=Cc1ccc(O)cc1 [p-Hydroxycinnamic acid] | 963.4234 RFU | – | – |

| Compound | Lipase (RFU) [1] | Lipase (RFU) [2] | also measured |
| --- | --- | --- | --- |
| O=c1cc[nH]c(=O)[nH]1 [Uracil] | – | – | Lipase (RFU) [4]: 876.7354 RFU |
| Cn1c(=O)[nH]c(=O)c2[nH]cnc21 [Compound 3-Methylxanthine, 3-Methylxanthine] | 838.8506 RFU | – | – |
| N[C@@H](CS)C(=O)O [L-Cysteine (hydrochloride hydrate)] | – | 1046.57 RFU | – |
| O=C(/C=C/c1ccc(O)c(O)c1)O[C@H](Cc1ccc(O)c(O)c1)C(=O)O [Rosmarinic Acid] | – | – | Lipase (RFU) (Table 7, single compound 20 mg/mL, human milk stored 1 week at −20° C., inhibited if RFU <400): 807.614 RFU |
| COc1cc(/C=C/C(=O)O)cc(O)c1O [5-Hydroxyferulic acid] | 919.0657 RFU | – | – |
| NCCCNCCCCNCCCN [Spermine] | – | – | Lipase (RFU) [4]: 1092.25 RFU; Lipase (RFU) [6]: 968.6677 RFU |
| N[C@@H](Cc1ccc(OP(=O)(O)O)cc1)C(=O)O [O-Phospho-L-Tyrosine] | – | – | Lipase (RFU) (Biolog PM4 compound added to fresh human milk, stored 1 week at −20° C., RFU <400 = hit): 844.9342 RFU |
| CCCCC/C=C\C/C=C\CCCCCCCC(=O)OCC [Ethyl linoleate] | 1142.329 RFU | – | – |
| CC(=O)N[C@@H](Cc1ccccc1)C(=O)O [N-Acetyl-L-phenylalanine] | 895.4408 RFU | – | – |
| OC[C@@H](O)[C@@H](O)[C@@H](O)CO [Ribitol] | – | – | Lipase (RFU) [6]: 769.1821 RFU |
| C[C@H]1[C@H](C)CC[C@]2(C)CC[C@]3(C)C(=CC(=O)[C@@H]4[C@@]5(C)CC[C@@H](O)[C@](C)(C(=O)O)[C@@H]5CC[C@]43C)[C@H]12 [11-Keto-beta-boswellic acid] | – | – | Lipase (RFU) [6]: 826.4636 RFU |
| CC(=O)SCCNC(=O)CCNC(=O)[C@H](O)C(C)(C)COP(=O)(O)OP(=O)(O)OC[C@H]1O[C@@H](n2cnc3c(N)ncnc32)[C@H](O)[C@@H]1OP(=O)(O)O.[Na].[Na].[Na] [Acetyl Coenzyme A (trisodium)] | – | – | Lipase (RFU) [6]: 1209.897 RFU |
| O=c1[nH]cnc2nc[nH]c12 [Hypoxanthine] | – | – | Lipase (RFU) [4]: 958.2355 RFU |
| CC1CCCCC1=O (stereo not shown) [Compound 2-Methylcyclohexanone, 2-Methylcyclohexanone] | – | 810.41 RFU | – |
| C[C@H](O)CC(=O)O [(S)-3-Hydroxybutanoic acid] | – | – | Lipase (RFU) [6]: 979.3394 RFU |
| N[C@@H](CCSC[C@H](N)C(=O)O)C(=O)O [L-Cystathionine] | 1266.889 RFU | – | – |
| CO[C@@H]1O[C@H](CO)[C@@H](O)[C@H](O)[C@H]1O [Methyl β-D-glucopyranoside] | – | – | Lipase (RFU) [6]: 1077.056 RFU |
| O=C(O)[C@H]1CCCN1 [(R)-pyrrolidine-2-carboxylic acid] | 741.8848 RFU | – | – |
| O=C(O)c1cccc(O)c1 [3-Hydroxybenzoic acid] | 901.3799 RFU | – | – |

More lines, main results first:

| Lipase (RFU) [1] | Lipase (RFU) [2] | Compound | also measured |
| --- | --- | --- | --- |
| 893.4961 RFU | – | COc1ccc(/C=C/C(=O)c2c(O)cc(OC)cc2OC)cc1 [Flavokawain A] | – |
| 1061.561 RFU | – | Oc1cc(O)c2cc(O)c(-c3ccc(O)c(O)c3)[o+]c2c1.[Cl-] [Cyanidin (Chloride)] | – |
| – | 811.133 RFU | CCOCc1ccccc1 [(Ethoxymethyl)benzene] | – |
| 908.1209 RFU | – | O=c1ccn([C@@H]2O[C@H](CO)[C@@H](O)[C@H]2O)c(=O)[nH]1 [Uridine] | Lipase (RFU) [3]: 818.9178 RFU; Lipase (RFU) [4]: 858.0629 RFU |
| 945.6384 RFU | – | O=C(O)CCCCCC(=O)O [Pimelic acid] | – |
| 967.1549 RFU | – | O=C(O)/C=C/c1ccccc1 [trans-Cinnamic acid] | – |
| 878.2265 RFU | – | CC(C)C(=O)C(=O)O [3-Methyl-2-oxobutanoic acid] | – |
| 844.1046 RFU | – | CCCCCCCCCCCCCc1cccc(O)c1C(=O)O [Ginkgolic Acid (C13:0)] | – |
| – | 1095.726 RFU | O=C1C=CCO1 [2(5H)-Furanone] | – |
| 690.7558 RFU | – | COc1ccc2ccc(=O)oc2c1 [Herniarin] | – |
| 658.0243 RFU | – | O=C(O)c1c(O)cccc1O [2,6-Dihydroxybenzoic acid] | – |
| 875.608 RFU | – | O=C(O)c1cc(C(=O)O)c2c(n1)C(=O)C(=O)c1cc(C(=O)O)[nH]c1-2 [Pyrroloquinoline quinone] | – |
| – | 1053.18 RFU | CCCCCCCCCCCCCCCC(=O)O [Palmitic acid] | – |
| 947.064 RFU | 804.7165 RFU | CC[C@H](C)[C@H](N)C(=O)O [L-Isoleucine] | Lipase (RFU) [5]: 1080.411 RFU; Lipase (RFU) [4]: 755.2513 RFU |
| 684.5208 RFU | – | COc1cc2ccc(=O)oc2cc1O[C@@H]1O[C@H](CO)[C@@H](O)[C@H](O)[C@H]1O [Scopolin] | – |
| – | 775.2638 RFU | CC(=O)c1ccco1 [Compound 2-Acetylfuran, 2-Acetylfuran] | – |
| – | 808.9347 RFU | CCCCCCCCCCCCCCCCCC(=O)O [Stearic acid] | – |

| Lipase (RFU) [1] | Lipase (RFU) [2] | Compound | also measured |
| --- | --- | --- | --- |
| 851.161 RFU | – | COc1cc(C[C@H]2COC(=O)[C@@H]2Cc2ccc(O)c(OC)c2)ccc1O [Matairesinol] | – |
| – | 813.3186 RFU | C=CCCC(=O)O [4-Pentenoic acid] | – |
| – | 982.8899 RFU | Cc1ccc2oc(=O)ccc2c1 [Compound 6-Methylcoumarin, 6-Methylcoumarin] | – |
| 1017.803 RFU | – | CCOC(=O)c1cc(O)c(O)c(O)c1 [Ethyl gallate] | – |
| – | 1017.943 RFU | CC(C)=CCC/C(C)=C/CC/C(C)=C/CO [Farnesol] | – |
| 943.7295 RFU | 964.8008 RFU | COC(=O)c1ccco1 [Methyl 2-furoate] | – |
| 1051.204 RFU | 915.4387 RFU | Cc1cnc(C)cn1 [2,5-Dimethylpyrazine] | – |
| – | 731.7445 RFU | CC(C)[C@H](N)C(=O)O [L-Valine] | Lipase (RFU) [5]: 825.5247 RFU; Lipase (RFU) [4]: 1052.532 RFU; Lipase (RFU) [6]: 688.2338 RFU |
| 977.6047 RFU | 1068.015 RFU | C=CC(C)(O)CCC=C(C)CCC=C(C)C (mixture of isomers) [Nerolidol] | – |
| 949.3028 RFU | – | OCCc1ccccc1 [Compound 2-Phenylethanol, 2-Phenylethanol] | – |
| 921.4345 RFU | – | O=c1c(-c2ccc(O)cc2)coc2cc(O)cc(O)c12 [Genistein] | – |
| – | 1081.551 RFU | C=C[C@H]1C[N@@]2CC[C@H]1C[C@H]2[C@H](O)c1ccnc2ccc(OC)cc12 [Quinine (hydrochloride dihydrate)] | – |
| 971.2489 RFU | – | Cc1ccc(C(=O)O)cc1C [3,4-Dimethylbenzoic acid] | – |
| 791.9775 RFU | – | COc1ccc(O)cc1 [Mequinol] | – |
| 1052.008 RFU | – | O=c1c(O[C@@H]2OC[C@H](O)[C@H](O)[C@H]2O)c(-c2ccc(O)c(O)c2)oc2cc(O)cc(O)c12 [Guaijaverin] | – |
| – | 1107.2 RFU | NC(=O)CC[C@H](N)C(=O)O [L-Glutamine] | Lipase (RFU) [3]: 935.2971 RFU; Lipase (RFU) [4]: 832.4002 RFU; Lipase (RFU) [6]: 692.9123 RFU |
| 932.5003 RFU | – | C[C@@H](O)[C@@H](C)O [(2R,3R)-Butane-2,3-diol] | – |

Counter-ions that a name gives are not always drawn. Where a SMILES comes first, the peptide text is derived from it.
